Counter-ions that a name gives are not always drawn.
Test system: CYP1A-like EROD activity
Test: EROD inhibition in RT-S9 (IC50 shift assay)
Settings: both, Christophersen, Bornhoeved, rainbow trout (Oncorhynchus mykiss), s9, pH 7.8, EROD inhibition in RT-S9, IC50 shift (A/C), IC50 Protocol A / IC50 Protocol C

**Q.** `COc1cc2nc(N3CCN(C(=O)c4ccco4)CC3)nc(N)c2cc1OC` [Prazosin, prazosin hydrochloride] was tested. Which IC50 shift at 10 min did it give?
**A.** 0.6

Reference: PMC11284600, “Many human pharmaceuticals are weak inhibitors of the cytochrome P450 system in rainbow trout (Oncorhynchus mykiss) liver S9 fractions” (Frontiers in Toxicology, 2024)
